Our source for the activity change, negative = inhibition values is PubChem BioAssay AID1347430 (National Center for Advancing Translational Sciences (NCATS), 2020).

The structures appear in SMILES notation. This is a selection; strong and weak results do not stand in their true shares. Calls of active or inactive are those of the source. The call rests on the fitted dose curve; in most records, active means well fitted inhibition curve with a large enough effect; inconclusive means small, poorly fitted or top-dose-only effect; inactive means flat fitted curve, though single readings scatter.
On the % scale 0 is the no-effect control and ±100 the full control effect.

In this test the test system is Uracil-DNA glycosylase. Kind of test: Primary qHTS assay for inhibitors of Activation Induced Cytidine Deaminase (AID): UDG Counterscreen signal. Further: nearly all actives have a fitted effect of over 65% in size. To be noted: FRET deamination/UDG coupled assay, UDG read, 4 h; at 115 µM (top of the series). From the text: Assay Provider (PI) Patricia Gearhart Ph.D.
National Institute on Aging
National Institute of Health (NIH), Bethesda, MD
Assay Provider (PI) Rahul Kohli Ph.D.
Perelman School of Medicine
University of Pennsylvania, Philadelphia, PA
Activation-Induced Deaminase (AID) is a cytosine deaminase which converts cytosine into uracil within stretches of ssDNA. The presence of uracil in DNA initiates a cascade of mutagenic DNA repair to introduce point mutations and DNA double strand breaks. Specific targeting of AID to the immunoglobulin heavy chain loci (Igh) promotes mutagenesis in the antibody variable region for somatic hypermutation (SHM) or switch regions leading to class switch recombination (CSR). […]
A FRET based analysis of cytosine deamination, was developed to identify potential inhibitors of AID catalytic activity. This screen has two signal output, Read 1 evaluates the AID inhibition response. The second readout (Read 2) evaluates UDG response and is uses as a counterscreen to exclude false positive inhibitors. […]
9a; Detection; fluorescence (Read 1: AID); EnVision (PerkinElmer) plate reader, 540 excitation and 590 emission filters
9b; Detection; fluorescence (Read 2: UDG); EnVision (PerkinElmer) plate reader, 560 excitation and 665 emission filters […]
9a; Fluorescence signal (column label AID) was read using the EnVision plate reader. […]
In general terms: qHTS replaces the single test concentration by a dilution series.
Consider `N#[O+].[C-]#N.[C-]#N.[C-]#N.[C-]#N.[C-]#N.[Fe+2].[Na+].[Na+]`, for which the activity change, negative = inhibition is inactive: -12.5%.
